Measurements published in paper PMC5454376 (Nature Communications, 2017).

Target: T1, Human His-Gαi3 WT (human, UniProt P08754 1-354)
T1 construct: Gαi3, human, UniProt P08754, full length; same plasmid as for the NMR studies; also called His-tagged Gαi3; tagged protein; source: E. coli, pET24d(+), purified as uncleaved His-tagged protein (HisPur Cobalt Resin); not shown: His tag, N-terminal, kept
Assay: fluorescence polarisation; fluorescein-labelled peptide 0.025 μM, G protein 0–8 μM; room temperature; 50 mM Tris-HCl pH 7.4, 100 mM NaCl, 0.4% NP-40, 10 mM MgCl2, 5 mM EDTA, 2 mM DTT, 30 μM GDP; one site binding hyperbola
Conditions: both partners purified

- binding result: binds
B1: Fluorescein-labelled DAPLE peptide (residues 1,662–1,695) (peptide)
peptide: SASPSSEMVTLEEFLEESNRSSPTHDTPSCRDDL
modifications: 5,6-carboxyfluorescein coupled to the resin-bound peptide after chain elongation
notes: DAPLE, human, residues 1,662–1,695; also called GBA motif of DAPLE; DAPLE-derived peptide; source: synthetic peptide
